The results in this text go back to patent publication US20130324503A1, “Method of identifying and treating a person having a predisposition to or afflicted with Parkinson disease” (Health Research Inc., priority 2010, published 2013).

The series has as its system D. melanogaster w^1118 females. The settings on record: in vivo.

With `CN1CCC[C@H]1c1cccnc1` [nicotine, 1-methyl-2-(3-pyridyl)pyrrolidone], the “decline in median survival” value worked out at 21%.
